The values that follow are results of earlier work, collected in patent publication US12599665B2, “Gene fusions for control of genetically modified cells” (A2 Biotherapeutics, Inc., priority 2020, dated 2026).

For the data set, the target named is T1, Progesterone receptor (NR3C3) (Homo sapiens, UniProt P06401).
T1 sequence (P06401 1-933): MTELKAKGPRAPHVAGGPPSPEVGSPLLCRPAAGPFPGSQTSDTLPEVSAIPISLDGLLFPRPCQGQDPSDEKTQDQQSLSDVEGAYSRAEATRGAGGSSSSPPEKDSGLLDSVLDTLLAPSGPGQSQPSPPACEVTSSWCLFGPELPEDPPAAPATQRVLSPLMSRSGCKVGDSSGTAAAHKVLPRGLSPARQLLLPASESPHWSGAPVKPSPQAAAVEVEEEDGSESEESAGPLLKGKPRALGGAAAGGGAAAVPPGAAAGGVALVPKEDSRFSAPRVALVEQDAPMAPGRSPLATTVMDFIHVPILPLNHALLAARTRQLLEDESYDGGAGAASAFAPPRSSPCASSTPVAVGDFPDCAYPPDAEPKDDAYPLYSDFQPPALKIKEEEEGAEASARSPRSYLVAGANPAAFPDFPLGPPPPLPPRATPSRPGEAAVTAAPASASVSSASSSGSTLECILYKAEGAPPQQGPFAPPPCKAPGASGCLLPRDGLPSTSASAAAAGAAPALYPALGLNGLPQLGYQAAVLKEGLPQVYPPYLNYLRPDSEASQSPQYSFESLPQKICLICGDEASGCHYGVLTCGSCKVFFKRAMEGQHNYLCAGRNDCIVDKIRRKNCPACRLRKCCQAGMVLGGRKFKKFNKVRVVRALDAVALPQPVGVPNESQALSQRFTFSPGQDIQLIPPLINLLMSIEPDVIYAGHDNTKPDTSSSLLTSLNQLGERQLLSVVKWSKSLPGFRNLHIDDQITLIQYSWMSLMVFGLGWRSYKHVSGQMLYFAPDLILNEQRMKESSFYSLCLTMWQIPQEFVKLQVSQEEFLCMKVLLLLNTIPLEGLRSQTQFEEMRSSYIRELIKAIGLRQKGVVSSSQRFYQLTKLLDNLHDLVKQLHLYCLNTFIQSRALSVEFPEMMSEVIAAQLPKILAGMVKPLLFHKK
To be noted: antagonist, Table 2; mifepristone: Mixed; cited from earlier work.

For `CN(C)c1ccc([C@H]2C[C@]3(C)[C@@H](CC[C@]3(O)CCCO)[C@@H]3CCC4=CC(=O)CCC4=C32)cc1` [onapristone], the pKi result is “(pKi 7.7),”.
